Measured values as given in ChEMBL document CHEMBL1125513, “Substituted 1-(aminomethyl)-2-(arylacetyl)-1,2,3,4-tetrahydroisoquinolines: a novel class of very potent antinociceptive agents with varying degrees of selectivity for kappa and mu opioid receptors” (1992).

Chains of the proteins cited; added tags and fusions are not shown. Lines headed by an entry give the natural chain unless they say otherwise; changes in a name come on top.
UniProt P41143, whole entry, looked up: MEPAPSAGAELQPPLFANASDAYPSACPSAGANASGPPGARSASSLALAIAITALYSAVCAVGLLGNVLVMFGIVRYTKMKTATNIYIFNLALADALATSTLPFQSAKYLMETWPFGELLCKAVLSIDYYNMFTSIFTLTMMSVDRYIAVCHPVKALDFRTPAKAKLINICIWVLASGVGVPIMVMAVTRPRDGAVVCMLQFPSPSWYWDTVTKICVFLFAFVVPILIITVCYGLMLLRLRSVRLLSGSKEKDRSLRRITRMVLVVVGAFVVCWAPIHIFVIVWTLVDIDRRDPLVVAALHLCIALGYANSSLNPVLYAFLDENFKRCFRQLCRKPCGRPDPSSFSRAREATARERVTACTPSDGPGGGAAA
UniProt P97266, whole entry, looked up: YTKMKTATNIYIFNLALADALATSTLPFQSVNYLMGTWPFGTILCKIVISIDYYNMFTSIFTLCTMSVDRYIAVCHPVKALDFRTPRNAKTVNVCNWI
UniProt P41144: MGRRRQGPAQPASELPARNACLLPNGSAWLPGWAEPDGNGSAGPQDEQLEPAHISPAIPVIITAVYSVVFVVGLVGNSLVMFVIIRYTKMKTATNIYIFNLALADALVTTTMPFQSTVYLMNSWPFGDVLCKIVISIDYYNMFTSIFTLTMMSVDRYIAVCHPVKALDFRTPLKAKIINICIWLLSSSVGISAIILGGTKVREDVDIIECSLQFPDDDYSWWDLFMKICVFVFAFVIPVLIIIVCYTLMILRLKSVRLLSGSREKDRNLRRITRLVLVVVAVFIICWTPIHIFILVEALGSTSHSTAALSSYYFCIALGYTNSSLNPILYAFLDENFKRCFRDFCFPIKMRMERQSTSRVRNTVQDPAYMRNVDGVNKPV

Columns and labels:
[1] = molecular target: Delta-type opioid receptor (Homo sapiens, UniProt P41143); assay: Receptor binding affinity towards opioid receptor delta
Mu-type opioid receptor = Mu-type opioid receptor (Cavia porcellus, UniProt P97266); assay: Receptor binding affinity towards opioid receptor mu
[2] = molecular target: Kappa-type opioid receptor (Cavia porcellus, UniProt P41144); assay: Receptor binding affinity towards opioid receptor kappa

Compound: O=C(Cc1ccc(Cl)c(Cl)c1)N1CCc2ccccc2C1CN1CCCC1 (centres undefined)
- Ki [1]: 113 nM

Compound: C[C@@H]1Cc2ccccc2[C@H](CN2CCCC2)N1C(=O)Cc1ccc(Cl)c(Cl)c1
- Ki (Mu-type opioid receptor): 11.1 nM
- Ki [2]: 0.43 nM

Compound: C[C@@H]1CN(C(=O)Cc2ccc(Cl)c(Cl)c2)[C@@H](CN2CCCC2)c2ccccc21
- Ki (Mu-type opioid receptor): 56.5 nM
- Ki [2]: 0.6 nM

Compound: CC1(C)CN(C(=O)Cc2ccc(Cl)c(Cl)c2)C(CN2CCCC2)c2ccccc21 (centres undefined)
- Ki (Mu-type opioid receptor): 239 nM
- Ki [2]: 2.3 nM

Compound: O=C(Cc1ccc(Cl)c(Cl)c1)N1CCc2c(O)cccc2C1CN1CCCC1 (centres undefined)
- Ki (Mu-type opioid receptor): 0.49 nM
- Ki [2]: 0.09 nM
